These results are taken from patent publication US10301261B2, “Substituted indoles as modulators of ROR-gamma” (Vitae Pharmaceuticals, LLC, priority 2015, dated 2019).

By UniProt entry, the sequences of proteins in these tests, tags left out. Chains listed by the source or under a name are the forms on record and can include a tag or linker. Residues count along the entry.
UniProt P51449, other isoform, or with tags, fused parts or gaps: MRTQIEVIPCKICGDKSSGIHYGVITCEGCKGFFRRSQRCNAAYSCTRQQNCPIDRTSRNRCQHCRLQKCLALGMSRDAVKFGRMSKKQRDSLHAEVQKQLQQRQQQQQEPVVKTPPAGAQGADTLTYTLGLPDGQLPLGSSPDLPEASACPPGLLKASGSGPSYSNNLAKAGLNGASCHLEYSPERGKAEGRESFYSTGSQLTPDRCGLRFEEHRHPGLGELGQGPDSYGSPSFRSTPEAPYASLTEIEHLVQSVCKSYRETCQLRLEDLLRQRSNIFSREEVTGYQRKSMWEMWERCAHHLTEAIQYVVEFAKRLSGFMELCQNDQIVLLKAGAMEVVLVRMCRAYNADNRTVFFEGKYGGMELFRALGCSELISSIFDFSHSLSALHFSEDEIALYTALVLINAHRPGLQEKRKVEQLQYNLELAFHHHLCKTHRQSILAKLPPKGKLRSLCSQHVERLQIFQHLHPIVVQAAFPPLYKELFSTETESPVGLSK
UniProt P51449, 269-508: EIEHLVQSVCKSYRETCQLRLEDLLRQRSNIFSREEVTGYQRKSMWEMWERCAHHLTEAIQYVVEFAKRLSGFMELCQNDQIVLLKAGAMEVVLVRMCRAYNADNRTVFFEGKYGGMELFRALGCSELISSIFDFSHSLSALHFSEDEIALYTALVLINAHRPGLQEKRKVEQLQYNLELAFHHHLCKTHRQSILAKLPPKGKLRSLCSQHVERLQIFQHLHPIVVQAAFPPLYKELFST

The target of assay [1] is full-length RORγt in Jurkat cells (Homo sapiens (Human), UniProt P51449). The experiment in a line: RORγt 5×RORE Assay in Jurkat Cells (Assay 2). Type of assay: cell-based. Conditions: RORγt 5×RORE Nanoluc reporter. How it is done:
[formula] RORγt 5×RORE Assay in Jurkat Cells (Assay 2)
Compounds described herein were tested for RORγ inverse agonist activity in a cell-based, transcriptional activity assay. […] (Promega, Cat. # N1021) using KpnI and HindIII restriction sites. […] Tested compounds were added to the cells in the same media (final concentration of DMSO was 0.1% (v/v)), and the plates were incubated at 37° C./5% CO2 for 16-18 hrs. Luciferase activity in the conditioned supernatants was determined with NanoGlo® assay reagents (Promega, Cat.# N1130).

The target in assay [2] is recombinant RORγ Ligand Binding Domain (LBD) protein (Homo sapiens (Human), UniProt P51449). Nature of the assay: Radio-Ligand RORγ Binding Assay (Assay 1). The note with it: radio-ligand 25-hydroxy [26,27-3H]-cholesterol competition. How it is done: Radio-Ligand RORγ Binding Assay (Assay 1)
Compounds described herein were tested for ability to bind to RORγ in a cell-free competition assay with commercially available radio-ligand (RL), 25-hydroxy [26,27-^3H]-cholesterol (PerkinElmer, Cat. # NET674250UC), for a ligand binding site on a recombinant RORγ Ligand Binding Domain (LBD) protein expressed as a 6×His-Glutathione-S-Transferase (GST) fusion. […] The plate was shaken at 700 rpm for 20 min and incubated for 10 min at rt, after which 40 μL of poly-Lys YSi SPA beads (PerkinElmer, Cat. # RPNQ0010) were added to achieve 50 μg of the beads per well. The plate was incubated on an orbital shaker for 20 min and then for 10 min without agitation at rt. SPA signal for tritium beta radiation was registered on PerkinElmer Microbeta plate reader. […] The percent inhibition vs. concentration data were fit into a four-parameter model, and IC50 values were calculated from the fit as the concentrations corresponding to the inflection points on the dose-response curves. […]

Usually IC50 stands for the concentration that gives 50% inhibition. Lower therefore signals inhibition by little substance. By Ki is commonly meant the equilibrium dissociation constant of an inhibitor or competing ligand from its target. `CCS(=O)(=O)c1ccc(CNC(=O)c2ccc3c(c2)nc(O[C@H]2CC[C@H](C(F)(F)F)CC2)n3C2CC2)cc1` [BE-3, 1-cyclopropyl-N-(4-(ethylsulfonyl)benzyl)-2-(((1r,4r)-4-(trifluoromethyl)cyclohexyl)oxy)-1H-benzo[d]imidazole-5-carboxamide] displayed an IC50 in assay [1] of 100 to 1000 nM. For the same molecule, in assay [2], the inhibitory constant (Ki) is below 100 nM.
